Biological target: T1, Dihydrofolate reductase (Homo sapiens, UniProt P00374)
T1 sequence (P00374 whole entry): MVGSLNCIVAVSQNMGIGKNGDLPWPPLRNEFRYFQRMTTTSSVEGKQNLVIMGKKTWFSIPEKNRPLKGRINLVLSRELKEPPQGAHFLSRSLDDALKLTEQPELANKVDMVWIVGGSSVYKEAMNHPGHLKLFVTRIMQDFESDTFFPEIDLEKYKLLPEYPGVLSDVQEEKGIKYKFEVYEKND
Test: Enzyme Inhibition Assay

| IC50 [nM] | Structure (SMILES) |
| --- | --- |
| 180 | COc1ccc(-c2cc(OC)cc(C(C)C#Cc3c(C)nc(N)nc3N)c2)cc1 (racemic) |
| 210 | COc1cc(-c2ccc(C(C)(C)C)cc2)cc(C(C)C#Cc2c(C)nc(N)nc2N)c1 (racemic) [Biphenyl antifolate, 24] |

Reference: BindingDB's records for doi:10.1111/j.1747-0285.2008.00745.x (University of Connecticut, 2009)
